The list is not random: actives were taken first. Their share in the collection is about 1.5%.
RAD54 branch: inhibitors of human RAD54 branch migration, primary screen, biochemical, fluorescence, single point; 360,000 tested, 0.14% active; AID 602329, 2012; RAD54 Holliday junction branch migration, FAM/BHQ fluorescence; DNA repair and recombination protein RAD54-like (Homo sapiens), Q92698; inhibition, % at 10.4 µM;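 active = mean normalized replicate activity at least 40 and at least half of replicates scoring 40 or more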;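 note: 0% = median of neutral control wells and 100% = median of positive control wells; inhibitors cause a drop in the FAM fluorescence signal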
CASP6 VEID inh: human caspase-6 inhibitors, primary screen, biochemical, VEID-R110 fluorescence, single point, set 2; purified caspase-6, Z-VEID-R110 cleavage fluorescence; inhibition, % at 12.5 µM; AID 686996, 2013; 350,000 tested, 0.53% active; P55212;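 active = mean inhibition across replicates at least about 35%, with every replicate also reaching that limit, limit read from the data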;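 note: 0% = median of neutral control wells and 100% = no fluorescence left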
PglD inh: C. jejuni PglD acetyltransferase inhibitors, primary screen, biochemical, DTNB colorimetric, single point. purified PglD enzyme, DTNB colorimetric CoA detection. 360,000 tested, 0.098% active. AID 602405, 2012. UDP-N-acetylbacillosamine N-acetyltransferase PglD (Campylobacter jejuni). inhibition, % at 12.5 µM; in the data active = inhibition above about 16%, passing the limit was not always enough
RAD52 anneal inh: RAD52 DNA annealing inhibitors, primary screen, biochemical, FRET, single point, set 2; DNA repair protein RAD52 homolog (Homo sapiens), P43351; recombinant RAD52 DNA annealing, FRET fluorescence; inhibition, % at 18.7 µM; 360,000 tested, 0.46% active; AID 651710, 2012;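 active = every replicate showing at least 50% inhibition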
Yeast UUG start-1: modulators of yeast start codon fidelity, primary screen, whole organism, S. cerevisiae, single point, plate reader; S. cerevisiae UUG-firefly luciferase reporter, luminescence/redox ratio; activity score, % at 18.7 µM; actives 0.13% (n = 350,000); AID 602363, 2012;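 active = replicate mean at a twofold rise or more, about +100% in these data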;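 also: firefly luciferase made from a UUG start codon reports start codon fidelity; reporter light over untreated wells divided by growth signal over untreated wells; some hits fall short of that in this replicate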
GSIS activator: GLuc luminescence reporter in INS-1E cells, primary screen for activators of glucose-dependent secretion of insulin; INS-1E GLuc reporter insulin secretion, 2-3 h; AID 743287, 2014; activation, % at 16.6 µM; 370,000 tested, 0.61% active;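 active = lowest replicate activation of at least 40%, so every replicate reaches that level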;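 note: 0% = median of neutral control wells and 100% = median of IBMX positive control wells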
Yeast UUG start-2: enhancers of UUG start codon usage in yeast, dose response, S. cerevisiae, UUG firefly luciferase, cherry-pick, set 2. AID 652061, 2013. luminescence, 4 h; 100% means double the DMSO signal. activation, % at 38 µM. 540 tested, under 10 active. shares compounds with Yeast UUG start-1;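 active = signal increase whose fitted curve reaches an absolute level of 40 at a concentration under 10 µM; inactive = activity opposite to the expected increase, or the rest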
* = called active by the depositor.

O=C(Cc1ccccc1)N1C[C@H]2[C@@H](c3ccccc31)[C@@H](CO)N2C(=O)C1CCOCC1 was read as RAD54 branch -1.8, CASP6 VEID inh -3.7, PglD inh -1.8, RAD52 anneal inh 4.1, Yeast UUG start-1 116.0*, GSIS activator 2.2 and Yeast UUG start-2 inactive.
`O=C(Cc1ccccc1)N1C[C@@H]2[C@H](c3ccccc31)[C@H](CO)N2C(=O)C1CCOCC1` gave RAD54 branch -0.6, PglD inh 3.0, Yeast UUG start-1 4.3 and GSIS activator -2.3.
`CCCNC(=O)N[C@H]1CC[C@H](CCn2cc(C3CC3)nn2)O[C@@H]1CO` gave RAD54 branch -8.0, CASP6 VEID inh 6.2, PglD inh 2.1, RAD52 anneal inh 6.4, Yeast UUG start-1 145.2*, GSIS activator 7.1 and Yeast UUG start-2 inactive.
`CC(C)c1cn(CC[C@@H]2CC[C@H](N)[C@@H](CO)O2)nn1` gave RAD54 branch 1.0, CASP6 VEID inh 0.7, PglD inh -2.9, RAD52 anneal inh -22.1, Yeast UUG start-1 193.5*, GSIS activator 4.2 and Yeast UUG start-2 inactive.
`CN(C)Cc1cn(CC[C@H]2CC[C@@H](N)[C@H](CO)O2)nn1` gave RAD54 branch -10.6, CASP6 VEID inh 0.1, PglD inh 1.5, RAD52 anneal inh -3.2, Yeast UUG start-1 -9.1 and GSIS activator -7.5.
COCc1cn(CC[C@H]2CC[C@@H](NC(=O)CCN3CCCCC3)[C@H](CO)O2)nn1 was read as RAD54 branch 4.6, CASP6 VEID inh -2.3, PglD inh 5.7, RAD52 anneal inh -10.2, Yeast UUG start-1 -9.3 and GSIS activator 8.1.
Screening COCc1cn(CC[C@@H]2CC[C@H](NC(=O)CCN3CCCCC3)[C@@H](CO)O2)nn1 returned RAD54 branch -25.4, CASP6 VEID inh -0.1, PglD inh 3.2, RAD52 anneal inh 9.7, Yeast UUG start-1 39.3*, GSIS activator 3.9 and Yeast UUG start-2 inactive.
Screening CN(C)CC(=O)N[C@H]1CC[C@H](CCn2cc(CN(C)C)nn2)O[C@H]1CO returned RAD54 branch -15.2, CASP6 VEID inh -2.0, PglD inh 0.2, RAD52 anneal inh 73.3*, Yeast UUG start-1 190.7*, GSIS activator -0.4 and Yeast UUG start-2 inactive.
`Cc1cccc(NC(=O)CNC(=O)CNC(=O)Cc2ccccc2)c1` gave RAD54 branch -3.0, CASP6 VEID inh -3.1, PglD inh -3.6, RAD52 anneal inh -7.5, Yeast UUG start-1 -5.4 and GSIS activator 14.7.
`O=C(C[C@H]1C[C@H]2c3cc(NS(=O)(=O)c4ccc(F)cc4)ccc3O[C@H]2[C@@H](CO)O1)NCC1CC1` gave RAD54 branch -1.3, PglD inh 4.6 and Yeast UUG start-1 -12.2.
For CC1=C(C(=O)OCCOC(C)C)C(c2cccnc2)C2=C(CCCC2=O)N1 (configuration not stated) the results were RAD54 branch 10.1, PglD inh -1.6 and Yeast UUG start-1 -18.4.
For O=C(COC(=O)Cc1ccc(Cl)cc1)Nc1ccccc1F the results were CASP6 VEID inh -0.5, RAD52 anneal inh 7.8 and GSIS activator -0.2.

As a working copy, some entries already given:
O=C(Cc1ccccc1)N1C[C@H]2[C@@H](c3ccccc31)[C@@H](CO)N2C(=O)C1CCOCC1 was read as RAD54 branch -1.8, CASP6 VEID inh -3.7, PglD inh -1.8, RAD52 anneal inh 4.1, Yeast UUG start-1 116.0*, GSIS activator 2.2 and Yeast UUG start-2 inactive.
`O=C(Cc1ccccc1)N1C[C@@H]2[C@H](c3ccccc31)[C@H](CO)N2C(=O)C1CCOCC1` gave RAD54 branch -0.6, PglD inh 3.0, Yeast UUG start-1 4.3 and GSIS activator -2.3.

Next part
`O=C(COC(=O)Cc1ccc(Cl)cc1)Nc1c(F)cccc1F` gave RAD54 branch 3.8, CASP6 VEID inh -0.9, PglD inh -3.2, RAD52 anneal inh -6.3, Yeast UUG start-1 460.1*, GSIS activator 10.5 and Yeast UUG start-2 -4.9.
`COc1ccc(S(=O)(=O)N2CCN(CCCOc3ccc(F)cc3)CC2)cc1OC` gave RAD54 branch -7.4, CASP6 VEID inh -1.6, PglD inh -9.2, RAD52 anneal inh -7.9, Yeast UUG start-1 303.0*, GSIS activator 3.1 and Yeast UUG start-2 7.3.
CCOc1ccc(NC(=O)CSc2nnc(CCNC(=O)c3ccc(OC)cc3)n2CC)cc1 was read as RAD54 branch 4.2, PglD inh 4.2, Yeast UUG start-1 -24.1 and GSIS activator -5.5.
Screening CCn1c(CCNC(=O)c2ccc(OC)cc2)nnc1SCC(=O)Nc1ccccc1F returned RAD54 branch -6.0, CASP6 VEID inh 1.6, PglD inh 0.0, RAD52 anneal inh -10.4, Yeast UUG start-1 315.9*, GSIS activator 6.9 and Yeast UUG start-2 1.2.
Screening CCOC(=O)c1c(NC(=O)c2ccc(Cl)cc2)csc1C returned GSIS activator 4.4.
Screening COc1c(C)cccc1C(=O)NCc1ccc2c(c1)OCO2 returned RAD54 branch 7.6, CASP6 VEID inh -1.6, PglD inh 7.5, RAD52 anneal inh -13.5, Yeast UUG start-1 active, GSIS activator -7.8 and Yeast UUG start-2 -10.2.
Screening COc1ccc(CNC(=O)c2ccc(-n3ccnc3)c3ccoc23)cc1OC returned RAD54 branch 3.0, CASP6 VEID inh 8.1, PglD inh -5.6, RAD52 anneal inh 7.2, Yeast UUG start-1 177.4*, GSIS activator 17.6 and Yeast UUG start-2 -3.4.
O=C(NCc1cccc(Cl)c1)c1ccc(-n2ccnc2)c2ccoc12 was read as RAD54 branch -5.0, CASP6 VEID inh 7.3, PglD inh 1.0, RAD52 anneal inh -3.6, Yeast UUG start-1 125.6* and Yeast UUG start-2 -7.2.
`CN(N=Nc1ccccc1C(=O)O)C1CCCCC1` gave RAD54 branch -2.6, CASP6 VEID inh -0.7, PglD inh 2.3, RAD52 anneal inh -9.4, Yeast UUG start-1 168.9* and Yeast UUG start-2 -5.4.
Screening O=C(Nc1cnc2ccccc2c1)N1CCOCC1 returned RAD54 branch 3.0, PglD inh -1.9, Yeast UUG start-1 105.5* and Yeast UUG start-2 6.8.
`C[C@H](NC(=O)c1nc[nH]c1C(=O)N1CCc2ccccc2C1)C(=O)OC(C)(C)C` gave RAD54 branch -7.8, CASP6 VEID inh 7.2, PglD inh 3.0, RAD52 anneal inh -10.1, Yeast UUG start-1 -16.0 and GSIS activator -12.7.
O=C(NCCc1ccc([N+](=O)[O-])cc1)c1ccccc1 was read as CASP6 VEID inh -2.6 and RAD52 anneal inh 4.6.
For CC(C)c1ccc(CCNC(=O)c2ccc([N+](=O)[O-])cc2)cc1 the results were RAD54 branch -17.4, CASP6 VEID inh 1.8, PglD inh -1.4, RAD52 anneal inh 13.7, Yeast UUG start-1 405.9*, GSIS activator -3.2 and Yeast UUG start-2 1.3.
For Nc1c(-c2ccccc2)nc(Cl)nc1-c1ccccc1 the results were RAD54 branch -10.1, PglD inh -5.5, Yeast UUG start-1 133.0* and Yeast UUG start-2 1.3.
`Cc1sc(N)nc1-c1ccccc1` gave RAD54 branch -5.8, CASP6 VEID inh -0.8, PglD inh 6.8, RAD52 anneal inh -6.9, Yeast UUG start-1 -14.5 and GSIS activator -5.4.

Of the compounds above, 2 contain an aryl thioether with sulfur outside any ring.
CCOc1ccc(NC(=O)CSc2nnc(CCNC(=O)c3ccc(OC)cc3)n2CC)cc1 was read as RAD54 branch 4.2, PglD inh 4.2, Yeast UUG start-1 -24.1 and GSIS activator -5.5.
Screening CCn1c(CCNC(=O)c2ccc(OC)cc2)nnc1SCC(=O)Nc1ccccc1F returned RAD54 branch -6.0, CASP6 VEID inh 1.6, PglD inh 0.0, RAD52 anneal inh -10.4, Yeast UUG start-1 315.9*, GSIS activator 6.9 and Yeast UUG start-2 1.2.

Source: PubChem BioAssay
